Legend:
μ-opioid receptor = μ-opioid receptor (Homo sapiens (Human), UniProt P35372); experiment: μ-opioid receptor functional assay ([35S]GTPγS); details: [35S]GTPγS functional assay
κ opioid receptor = κ opioid receptor (Homo sapiens (Human), UniProt P41145); experiment: κ-opioid receptor functional assay ([35S]GTPγS); details: [35S]GTPγS functional assay
δ opioid receptor = δ opioid receptor (Homo sapiens (Human), UniProt P41143); experiment: δ-opioid receptor functional assay ([35S]GTPγS); details: [35S]GTPγS functional assay
[1] = target: human opioid receptor-like (ORL-1) (Homo sapiens (Human), UniProt P41146); experiment: ORL-1 receptor binding assay ([3H]-nociceptin)

Protein sequences, listed by entry. Tags and fused reporters are not part of them.
UniProt P35372, whole entry: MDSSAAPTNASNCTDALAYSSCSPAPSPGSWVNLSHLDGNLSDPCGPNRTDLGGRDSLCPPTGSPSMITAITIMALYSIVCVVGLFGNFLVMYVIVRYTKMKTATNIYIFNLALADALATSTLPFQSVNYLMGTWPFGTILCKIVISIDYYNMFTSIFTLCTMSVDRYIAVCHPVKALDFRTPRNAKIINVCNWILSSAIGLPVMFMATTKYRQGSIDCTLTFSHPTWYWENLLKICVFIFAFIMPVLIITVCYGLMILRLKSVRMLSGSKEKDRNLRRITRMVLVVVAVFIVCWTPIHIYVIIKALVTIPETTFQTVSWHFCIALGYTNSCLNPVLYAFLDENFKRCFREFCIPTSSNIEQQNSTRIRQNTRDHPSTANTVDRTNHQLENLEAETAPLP
UniProt P41145, whole entry: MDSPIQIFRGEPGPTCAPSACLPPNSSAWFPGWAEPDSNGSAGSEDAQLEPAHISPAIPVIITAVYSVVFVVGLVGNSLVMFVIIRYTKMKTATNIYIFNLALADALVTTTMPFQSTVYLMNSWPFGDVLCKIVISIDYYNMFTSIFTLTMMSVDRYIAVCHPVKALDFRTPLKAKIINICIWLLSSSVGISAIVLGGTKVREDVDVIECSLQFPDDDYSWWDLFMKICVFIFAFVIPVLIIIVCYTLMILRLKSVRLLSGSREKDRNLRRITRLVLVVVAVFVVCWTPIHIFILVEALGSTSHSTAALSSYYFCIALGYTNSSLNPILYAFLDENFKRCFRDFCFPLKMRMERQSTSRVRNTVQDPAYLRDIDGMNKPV
UniProt P41146, whole entry: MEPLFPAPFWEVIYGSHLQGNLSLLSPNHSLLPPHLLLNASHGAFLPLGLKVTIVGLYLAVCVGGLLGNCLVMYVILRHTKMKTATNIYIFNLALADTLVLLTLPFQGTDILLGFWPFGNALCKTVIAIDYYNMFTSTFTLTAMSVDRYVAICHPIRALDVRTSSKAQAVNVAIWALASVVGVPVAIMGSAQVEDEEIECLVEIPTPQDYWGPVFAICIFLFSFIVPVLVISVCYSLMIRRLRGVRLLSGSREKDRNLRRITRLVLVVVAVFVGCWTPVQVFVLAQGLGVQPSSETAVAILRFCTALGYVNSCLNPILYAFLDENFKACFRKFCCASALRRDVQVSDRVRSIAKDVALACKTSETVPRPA

| SMILES | GTPγS Opioid Receptor μ Emax (μ-opioid receptor) | GTPγS Opioid Receptor κ Emax (κ opioid receptor) | GTPγS Opioid Receptor δ Emax (δ opioid receptor) | Binding Affinity, ORL-1 [1] | GTPγS Opioid Receptor μ EC50 (μ-opioid receptor) | GTPγS Opioid Receptor κ EC50 (κ opioid receptor) |
| --- | --- | --- | --- | --- | --- | --- |
| COc1ccc2c3c1O[C@H]1[C@@]4(OC)CC[C@@]5(C[C@@H]4COC(=O)[C@@H](N)CC(C)C)[C@@H](C2)N(CC2CC2)CC[C@]315 | 17.00% | 57.00% | 98.00% |  |  |  |
| CO[C@]12CC[C@@]3(C[C@@H]1COc1ccc(-n4ccnc4)cc1)[C@H]1Cc4ccc(O)c5c4[C@@]3(CCN1C)[C@H]2O5 |  | 37.33% | 74.67% | Inactive |  |  |
| CCOC(=O)CC[C@H]1[C@H](COCc2ccccc2)[C@@]23CC[C@]1(OC)[C@@H]1Oc4c(OC)ccc5c4[C@@]12CCN(CC1CC1)[C@@H]3C5 | 20.83% | 14.33% |  |  |  |  |
| COCCOCCOCCOc1ccc2c3c1O[C@H]1[C@@]4(OC)CC[C@@]5(C[C@@H]4COCc4ccccc4)[C@@H](C2)N(CC2CC2)CC[C@]315 | 65.50% | 95.33% | 89.00% |  |  |  |
| CO[C@]12CC[C@@]3(C[C@@H]1COCc1ccccc1)[C@H]1Cc4ccc(N)c5c4[C@@]3(CCN1C)[C@H]2O5 |  | 81.00% | 82.33% |  |  |  |
| CO[C@]12CC[C@@]3(C[C@@H]1COCc1cc4ccccc4s1)[C@H]1Cc4ccc(OCCO)c5c4[C@@]3(CCN1CC1CC1)[C@H]2O5 | 25.67% | 73.33% | 41.25% |  |  |  |
| CO[C@]12CC[C@@]3(C[C@@H]1COc1ccc(-n4ccnc4)cc1)[C@H]1Cc4ccc(O)c5c4[C@@]3(CCN1CC1CC1)[C@H]2O5 |  |  | 23.33% | Inactive | Inactive | Inactive |
| CC[C@H](C)[C@H](N)C(=O)OC[C@H]1C[C@@]23CC[C@]1(OC)[C@@H]1Oc4c(O)ccc5c4[C@@]12CCN(CC1CC1)[C@@H]3C5 | 19.00% | 18.25% |  |  |  |  |
| CO[C@]12CC[C@@]3(C[C@@H]1COCc1ccccc1)[C@H]1Cc4ccc(C(N)=O)c5c4[C@@]3(CCN1C)[C@H]2O5 |  | 87.33% | 101.00% |  |  |  |
| CO[C@]12CC[C@@]3(C[C@@H]1COCc1ccccc1)[C@H]1Cc4ccc(C(N)=O)c5c4[C@@]3(CCN1CC1CC1)[C@H]2O5 | 21.25% | 87.00% |  |  |  |  |
| COc1ccc2c3c1O[C@H]1[C@@]4(OC)CC[C@@]5(C[C@@H]4CS(=O)(=O)Cc4ccccc4)[C@@H](C2)N(CC2CC2)CC[C@]315 | 61.67% | 65.00% |  |  |  |  |
| CO[C@]12CC[C@@]3(C[C@@H]1COCc1ccccc1)[C@H]1Cc4ccc(OCc5nn[nH]n5)c5c4[C@@]3(CCN1CC1CC1)[C@H]2O5 | 73.67% | 88.00% | 94.67% | Inactive |  |  |
| COc1ccc2c3c1O[C@H]1[C@@]4(OC)CC[C@@]5(C[C@@H]4COC(=O)[C@@H](N)Cc4ccccc4)[C@@H](C2)N(CC2CC2)CC[C@]315 |  | 74.33% | 76.33% |  | Inactive |  |
| CO[C@]12CC[C@@]3(C[C@@H]1COCc1ccccc1)[C@H]1Cc4ccc(NS(C)(=O)=O)c5c4[C@@]3(CCN1C)[C@H]2O5 |  | 76.67% | 117.67% |  |  |  |
| CC[C@H](C)[C@H](N)C(=O)OC[C@H]1C[C@@]23CC[C@]1(OC)[C@@H]1Oc4c(OC)ccc5c4[C@@]12CCN(CC1CC1)[C@@H]3C5 |  | 52.00% |  |  | Inactive |  |
| CCCc1cc(COC[C@H]2C[C@@]34CC[C@]2(OC)[C@@H]2Oc5c(OC)ccc6c5[C@@]23CCN(C)[C@@H]4C6)on1 |  | 88.00% |  | Inactive |  |  |

| SMILES | GTPγS Opioid Receptor μ Emax (μ-opioid receptor) | GTPγS Opioid Receptor κ Emax (κ opioid receptor) | GTPγS Opioid Receptor δ Emax (δ opioid receptor) | Binding Affinity, ORL-1 [1] | GTPγS Opioid Receptor μ EC50 (μ-opioid receptor) | GTPγS Opioid Receptor κ EC50 (κ opioid receptor) |
| --- | --- | --- | --- | --- | --- | --- |
| COc1ccc2c3c1O[C@H]1[C@@]4(OC)CC[C@@]5(C[C@@H]4CN(Cc4ccccc4)C(C)=O)[C@@H](C2)N(CC2CC2)CC[C@]315 | 56.40% | 101.33% | 71.33% |  |  |  |
| COc1ccc2c3c1O[C@H]1[C@@]4(OC)CC[C@@]5(C[C@@H]4CSCc4ccccc4)[C@@H](C2)N(CC2CC2)CC[C@]315 | 19.33% | 89.00% | 53.00% |  |  |  |
| CO[C@]12CC[C@@]3(C[C@@H]1COC(=O)[C@H](C)N)[C@H]1Cc4ccc(O)c5c4[C@@]3(CCN1CC1CC1)[C@H]2O5 |  | 23.25% |  |  | Inactive |  |
| COCCOCCOCCOCCOCCO[C@]12CC[C@@]3(C[C@@H]1COCc1ccccc1)[C@H]1Cc4ccc(OC)c5c4[C@@]3(CCN1CC1CC1)[C@H]2O5 | 34.50% |  |  |  |  |  |
| CO[C@]12CC[C@@]3(C[C@@H]1COC(=O)[C@@H](N)Cc1ccccc1)[C@H]1Cc4ccc(O)c5c4[C@@]3(CCN1CC1CC1)[C@H]2O5 |  | 63.33% | 51.25% |  | Inactive |  |
| CO[C@]12CC[C@@]3(C[C@@H]1COCc1ccccc1)[C@H]1Cc4ccc(OCC(N)=O)c5c4[C@@]3(CCN1CC1CC1)[C@H]2O5 | 81.33% | 80.67% | 104.25% |  |  |  |
| COc1ccc2c3c1O[C@H]1[C@@]4(OC)CC[C@@]5(C[C@@H]4C[S+]([O-])Cc4ccccc4)[C@@H](C2)N(CC2CC2)CC[C@]315 (stereo partly drawn) | 45.33% | 97.00% | 61.33% |  |  |  |
| COCCOCCOCCO[C@]12CC[C@@]3(C[C@@H]1COCc1ccccc1)[C@H]1Cc4ccc(OC)c5c4[C@@]3(CCN1CC1CC1)[C@H]2O5 | 34.50% |  |  |  |  |  |
| COc1ccc2c3c1O[C@H]1[C@@]4(OC)CC[C@@]5(C[C@@H]4C(C)(C)OCc4ccccc4)[C@@H](C2)N(CC2CC2)CC[C@]315 | 19.75% | 91.00% |  |  |  |  |
| CCOC(=O)CC[C@H]1[C@H](COCc2ccccc2)[C@]2(OC)CC[C@]13[C@H]1Cc4ccc(OC)c5c4[C@@]3(CCN1CC1CC1)[C@H]2O5 | 26.60% | 10.83% |  |  |  |  |
| COc1ccc2c3c1O[C@H]1[C@@]4(O)CC[C@@]5(C[C@@H]4COCc4ccccc4)[C@@H](C2)N(CC2CC2)CC[C@]315 | 37.67% |  |  |  |  |  |
| CO[C@]12CC[C@@]3(C[C@@H]1COCc1cccc(NC(=O)c4ccccc4)c1)[C@H]1Cc4ccc(O)c5c4[C@@]3(CCN1CC1CC1)[C@H]2O5 |  | 86.00% |  |  | Inactive |  |
| COc1ccc2c3c1O[C@H]1[C@@]4(OC)CC[C@@]5(C[C@@H]4CN(Cc4ccccc4)S(C)(=O)=O)[C@@H](C2)N(CC2CC2)CC[C@]315 | 26.33% | 71.67% | 49.20% |  |  |  |
| COc1ccc2c3c1O[C@H]1[C@@]4(OC)CC[C@@]5(C[C@@H]4COCc4cccc(NC(N)=O)c4)[C@@H](C2)N(CC2CC2)CC[C@]315 |  | 53.33% | 98.33% |  | Inactive |  |
| COc1ccc2c3c1O[C@H]1[C@@]4(c5ccccc5)CC[C@@]5(C[C@@H]4COCc4ccccc4)[C@@H](C2)N(CC2CC2)CC[C@]315 | 11.00% | 89.67% |  |  |  |  |
